Where two headings read alike, the source gives them in different places.
Assays:
MAO-B = MAO-B (Rattus norvegicus, UniProt P19643); assay: in vivo
Description: (§1) ALZET® osmotic minipumps are described in Perkins L, Peer C, and Murphy-Hackley P. “Chapter 21: The use of mini-osmotic pumps in continuous infusion studies” in Handbook of Pre-Clinical Continuous Intravenous Infusion, (Smith & Healing, eds., Taylor and Francis, 2000), the contents of which are incorporated herein by reference.
(§2) The osmotic minipumps were inserted subcutaneously with a single surgical procedure: after clipping the fur from the dorsal area and cleaning the skin with antiseptic skin preparation, about 1 cm long incision was made on the dorsum of the animal, midway between both scappulae. The pump was placed along the axis of the body to one side of the backbone. The incision was positioned about 1-2 cm caudal to the estimated caudal end of the minipump when it is in place.
(§3) After two weeks of treatment the animals were sacrificed. From each rat, brain (half) and a part of liver were dissected and frozen. The intestine was excised about ½ cm below the stomach about 1-2 cm long, washed with sucrose 0.32 Molar and frozen at −70° C.
(§4) Tissue homogenates were pre incubated (37° C.) in the presence of clorgyline or deprenyl to inhibit the activity of MAO-A or MAO-B respectively. For MAO-B determination, samples were incubated for 20 minutes with C^14 PEA 10 μM and for MAO-A determination samples were incubated 30 minutes with C^14 −5HT 100 μM as substrate Termination of the reaction was done by acidification. The labeled metabolites were extracted into toluene:ethyl acetate, and counted in a β counter.

Protein sequences, listed by entry. Tags and fused reporters are not part of them.
UniProt P19643, whole entry: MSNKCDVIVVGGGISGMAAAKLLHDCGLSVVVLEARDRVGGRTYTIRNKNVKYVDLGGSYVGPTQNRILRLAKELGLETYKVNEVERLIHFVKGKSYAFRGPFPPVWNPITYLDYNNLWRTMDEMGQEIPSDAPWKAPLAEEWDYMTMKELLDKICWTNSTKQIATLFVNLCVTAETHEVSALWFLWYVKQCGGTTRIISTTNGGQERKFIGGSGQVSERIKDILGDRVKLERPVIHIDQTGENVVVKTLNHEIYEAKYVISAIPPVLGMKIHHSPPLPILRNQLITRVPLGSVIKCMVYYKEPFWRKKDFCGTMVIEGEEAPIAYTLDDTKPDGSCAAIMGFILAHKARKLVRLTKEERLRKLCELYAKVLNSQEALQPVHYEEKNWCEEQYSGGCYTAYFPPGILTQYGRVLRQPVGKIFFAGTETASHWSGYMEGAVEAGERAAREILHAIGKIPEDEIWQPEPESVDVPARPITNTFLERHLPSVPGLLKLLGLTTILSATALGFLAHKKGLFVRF
UniProt P21396, whole entry: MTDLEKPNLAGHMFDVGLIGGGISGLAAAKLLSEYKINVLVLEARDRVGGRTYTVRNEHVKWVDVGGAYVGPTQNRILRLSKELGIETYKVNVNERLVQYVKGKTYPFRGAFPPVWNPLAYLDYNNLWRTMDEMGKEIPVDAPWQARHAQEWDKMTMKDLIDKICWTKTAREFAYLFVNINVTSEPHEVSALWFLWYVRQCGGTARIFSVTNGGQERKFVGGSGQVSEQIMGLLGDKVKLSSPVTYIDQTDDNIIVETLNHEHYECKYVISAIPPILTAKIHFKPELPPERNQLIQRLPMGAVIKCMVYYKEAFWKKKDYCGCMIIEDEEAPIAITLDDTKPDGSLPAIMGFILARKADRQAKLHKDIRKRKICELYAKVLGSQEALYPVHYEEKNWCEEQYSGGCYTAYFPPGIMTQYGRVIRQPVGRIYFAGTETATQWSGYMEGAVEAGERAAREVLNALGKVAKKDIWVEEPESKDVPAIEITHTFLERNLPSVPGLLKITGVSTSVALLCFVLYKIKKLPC

MAO-A = MAO-A (Rattus norvegicus, UniProt P21396); assay: in vivo; details: po
Description: as §1, §2, §3, §4

[1] = rat, po, read-out: Percent of MAO-B inhibition, brain
[2] = rat, po, read-out: Percent of MAO-B inhibition, liver
[3] = rat, sc, read-out: Percent of MAO-B inhibition, brain
[4] = rat, sc, read-out: Percent of MAO-B inhibition, liver
[5] = read-out: Percent of MAO-A inhibition, intestine

SMILES: C#CCN[C@@H]1CCc2ccccc21 [rasagiline, R(+)-N-propargyl-l-aminoindan]
- MAO-B activity, brain (MAO-B; brain, sc ALZET pumps, 0.8 mg/kg/day (salt), two weeks): 12 dpm
- MAO-B activity, liver (MAO-B; liver, oral, 0.8 mg/kg/day (salt), two weeks): −5 dpm
- inhibition at 0.05 mg/kg/day (MAO-B; [1]): 95%
- inhibition at 0.1 mg/kg/day (MAO-B; [1]): 98%
- inhibition at 0.2 mg/kg/day (MAO-B; [1]): 99%
- inhibition at 0.1 mg/kg/day (MAO-B; [2]): 97%
- inhibition at 0.2 mg/kg/day (MAO-B; [2]): 98%
- inhibition at 0.4 mg/kg/day (MAO-B; [2]): 99%
- inhibition at 0.02 mg/kg/day (MAO-B; [3]): 88%
- inhibition at 0.05 mg/kg/day (MAO-B; [3]): 97%
- inhibition at 0.1 mg/kg/day (MAO-B; [3]): 98%
- inhibition at 0.2 mg/kg/day (MAO-B; [3]): 99%
- inhibition at 0.2 mg/kg/day (MAO-B; [4]): 95%
- inhibition at 0.4 mg/kg/day (MAO-B; [4]): 97%
- inhibition at 0.8 mg/kg/day (MAO-B; [4]): 97%
- inhibition at 0.05 mg/kg/day (MAO-A; [5]): 29%
- inhibition at 0.4 mg/kg/day (MAO-A; [5]): 67%
- inhibition at 0.4 mg/kg/day (MAO-A; read-out: Percent of MAO-A inhibition, liver): 54%

Reference: patent US9308182B2 (TEVA PHARMACEUTICAL INDUSTRIES, LTD., priority 2012, dated 2016)
